The text below walks through data of article PMC7588194, “Respiratory ß-2-Microglobulin exerts pH dependent antimicrobial activity” (Virulence, 2020).

Data set [1] concerns L. monocytogenes (ATCC BAA-679/EGD-e). The data set is described as follows: Radial diffusion assay. The class given is cell-based. As for the experimental part: To identify library fractions and purified peptides with antibacterial activity a radial diffusion assay was carried out. Bacteria were cultured in liquid THY broth (Todd-Hewitt Broth [Oxoid, CM0189B] supplemented with 0.5% yeast extract [BD, Miami, USA, 212,750]) at 37°C overnight in a 5% CO2 atmosphere, pelleted by centrifugation and washed in 10 mM sodium phosphate buffer. Following resuspension in 10 mM sodium phosphate buffer optical density was determined spectrophotometrically at 600 nm (OD600nm). Bacterial density was adjusted to seed 2 × 10^7 bacteria into a petri dish in 1% agarose dissolved in 10 mM sodium phosphate buffer. Plates were allowed to cool for 30 min at 4°C before several 2–3 mm holes were placed into the 1% agarose. Freeze-dried fractions of the BAL library pool were reconstituted in 200 µl of ddH2O with 10 µl being used for the initial screen. Alternatively, peptides adjusted to the desired concentration in 10 µl of ddH2O were filled into the agar-holes. Following incubation at 37°C in ambient air for 3 h plates were overlaid with 10 ml of a 1% agarose solution containing 3% tryptic soy broth (TSB) dissolved in 10 mM phosphate buffer. Inhibition zones in cm were determined following 16–18 h incubation time at 37°C in a 5% CO2 atmosphere. […] Fibrils were generated by incubation of B2M of 1 mg/ml in 150 µl of 20% TSB NaPO4 adjusted to pH 7 and pH 4.5 for 30 min at 37°C. After centrifugation, the supernatant was collected and the pelleted fibrils were dissolved in 150 µl of the corresponding buffer. The supernatant and the fibril solutions were then assayed in a radial diffusion assay as described above.

For the next data set, the system named is L. monocytogenes cells. Description: Transmission electron microscopy (TEM). Type of data set: cell-based. As to conditions: B2M 1 mg/ml, 15 min, pH 4.5. As to the method:
L. monocytogenes cells, grown to mid-exponential phase, were harvested by centrifugation and resuspended in 20% TSB dissolved in 20 mM NaPO4 (pH 4.5). Following treatment of 5 × 10^9 cells with 1 mg/ml B2M for 15 min at 37°C cells were pelleted by centrifugation and fixed with 2.5% glutaraldehyde containing 1% saccharose in phosphate buffer (pH 7.3). Samples were washed 5 times with phosphate buffer and postfixed in 2% aqueous osmium tetroxide. After dehydrating the samples in a graded series of 1-propanol, they were blockstained in 1% uranyl acetate and embedded in Epon. Sections were collected on copper grids, contrasted with 0.3% lead citrate for 1 min and imaged in a Zeiss TEM 109 or in a Jeol TEM 1400.

Data set [2] is described as follows: Thioflavin T (ThT) measurement of amyloid fibrils. The class given is physicochemical. Conditions: ThT fluorescence ex 450 nm / em 482 nm, two independent experiments. As for the experimental part:
To monitor the presence of amyloid fibrils, a 2.5 mM stock solution of ThT (Sigma-Aldrich, Schnelldorf, Germany, […]) in PBS was prepared and sterile filtered. 1 μl of this solution was added to 15 μl of the peptide sample (1 mg/ml), then the sample was filled up to 100 μl using 84 μl of PBS and incubated for 10 minutes in the dark, at room temperature. Of each preparation, 50 μl were transferred to one well of a Corning® 96 well black polystyrene microplate (Sigma-Aldrich, CLS3603). Fluorescence intensity scans were performed at an excitation wavelength of 450 nm and an emission at 482 nm, using a Synergy H1 hybrid multi-mode reader (Biotek, Bad Friedrichshall, Germany). All values represent fluorescence intensity derived from duplicates minus background activity derived from possible background fluorescence. Duplicates were expressed as mean ± standard error derived from two independent experiments.

Data set [3] deals with L. monocytogenes cells (ATCC BAA-679/EGD-e). Description: Survival assay (CFU). The class given is cell-based. Conditions: B2M 1 mg/ml, 37°C. As to the method: L. monocytogenes cells (ATCC BAA-679/EGD-e) were grown in THY broth at 37°C in a 5% CO2 atmosphere overnight. 1 ml of the culture adjusted to an OD600nm of 0.1 was centrifuged and the bacterial pellet was resuspended in 1 ml of assay medium (20% TSB dissolved in 20 mM NaPO4 adjusted to different pH values). 90 μl of the bacterial suspension was mixed with 10 μl of the desired concentration of B2M (Lee BioSolutions, St. Louis, Missouri, 126-12-10) or with 10 μl of ddH2O (negative control) followed by incubation at 37°C. Samples were taken at the indicated time points, dilutions were prepared and plated on Sheep blood agar plates (TSA+SB, Oxoid, Basingstoke, UK, […]). Colony Forming Units (CFU) were quantified after overnight incubation of the agar plates at 37°C in a 5% atmosphere. Bacterial survival was calculated in comparison to the CFU present at the beginning of the experiment (t = 0 min) and normalized to the mock-treated bacterial sample grown in the corresponding assay medium.

Data set [4] relates to P. aeruginosa (ATCC 27853). Description: Radial diffusion assay. Type of data set: cell-based. As to conditions: different amounts of B2M (Figure 3a). As for the experimental part: (§1) To identify library fractions and purified peptides with antibacterial activity a radial diffusion assay was carried out. Bacteria were cultured in liquid THY broth (Todd-Hewitt Broth [Oxoid, CM0189B] supplemented with 0.5% yeast extract [BD, Miami, USA, 212,750]) at 37°C overnight in a 5% CO2 atmosphere, pelleted by centrifugation and washed in 10 mM sodium phosphate buffer. Following resuspension in 10 mM sodium phosphate buffer optical density was determined spectrophotometrically at 600 nm (OD600nm). Bacterial density was adjusted to seed 2 × 10^7 bacteria into a petri dish in 1% agarose dissolved in 10 mM sodium phosphate buffer. Plates were allowed to cool for 30 min at 4°C before several 2–3 mm holes were placed into the 1% agarose. Freeze-dried fractions of the BAL library pool were reconstituted in 200 µl of ddH2O with 10 µl being used for the initial screen. Alternatively, peptides adjusted to the desired concentration in 10 µl of ddH2O were filled into the agar-holes. Following incubation at 37°C in ambient air for 3 h plates were overlaid with 10 ml of a 1% agarose solution containing 3% tryptic soy broth (TSB) dissolved in 10 mM phosphate buffer. Inhibition zones in cm were determined following 16–18 h incubation time at 37°C in a 5% CO2 atmosphere.

Another data set has as its system Bacillus subtilis. The data set is described as follows: Radial diffusion assay. The class given is cell-based. As to conditions: different amounts of B2M (Figure 3a). As for the experimental part: as §1
For data set [5], the system named is L. monocytogenes (ATCC BAA-679/EGD-e). The data set is described as follows: Sytox green membrane permeabilization. The class given is cell-based. As to conditions: B2M 1 mg/ml, up to 1 h; especially at pH 5.5 and 4.5, visible after 15 min. As for the experimental part: Two different readouts (fluorescence plate reader and flow cytometer) were used to measure Sytox green (Invitrogen, Thermo Fisher Scientific, Dreieich, Germany […]) uptake into bacterial cells. For samples analyzed by the flow cytometer, an equivalent of 100 μl of a L. monocytogenes (ATCC BAA-679/EGD-e) culture grown to an OD600nm of 0.1 were harvested by centrifugation and resuspended in 20% TSB dissolved in 20 mM NaPO4 adjusted to three different pH values (pH 7, pH 5.5, pH 4.5). The samples were treated with B2M at a concentration of 1 mg/ml or were mock-treated with ddH2O. After incubation at 37°C for 1 h, the cells were pelleted and resuspended in 20% TSB NaPO4 adjusted to pH 7, pH 5.5, and pH 4.5 containing 0.02 μM Sytox green stain. Quantification was done by FACS analysis. Bacteria treated with 70% isopropanol served as positive control, mocked treated cells (ddH2O) served as negative control. The percentage of Sytox positive cells is depicted by normalizing the analyzed samples to the positive control. L. monocytogenes cells analyzed by fluorescence plate reader were grown till an OD600nm of 0.1 was obtained. Bacterial cells were centrifuged and the pellet was resuspended in one volume of 20% TSB NaPO4 adjusted to pH 7, pH 5.5 and pH 4.5 with 0.2 μM Sytox. […] The fluorescence intensity was measured with a Tecan infinite M plate reader using an excitation wavelength of 488 nm. […]

Turning to “B2M fibrils: pelleted mature B2M fibrils dissolved in assay buffer after incubation of B2M 1 mg/ml for 30 min at 37°C”, the zone of inhibition is 0 cm in data set [1] (B2M 1 mg/ml incubated 30 min 37°C at pH 4.5, fibril pellet dissolved in 150 µl assay buffer pH 4.5, undiluted); 0 cm in data set [1] (pH 4.5 fibrils, diluted 1:2); 0 cm in data set [1] (pH 4.5 fibrils, diluted 1:4); 0 cm in data set [1] (pH 4.5 fibrils, diluted 1:8); 0 cm in data set [1] (pH 4.5 fibrils, diluted 1:16); 0 cm in data set [1] (pH 7 fibrils (no visible fibril pellet was obtained after centrifugation), undiluted). Further, the zone of inhibition in data set [1] (pH 7 fibrils (no visible pellet), diluted 1:2) is 0 cm; in data set [1] (pH 7 fibrils (no visible pellet), diluted 1:4) it was 0 cm; in data set [1] (pH 7 fibrils (no visible pellet), diluted 1:8) it was 0 cm; in data set [1] (pH 7 fibrils (no visible pellet), diluted 1:16), 0 cm.
For the substance ß-2-microglobulin [B2M], the “intact bacterial cells in TEM” value in the data set on L. monocytogenes cells is recorded as “substantial reduction of intact bacterial cells”. In addition, the “aggregation state / fibril formation (ThT)” value in data set [2] (pH 4.5, 30 min at 37°C, B2M 1 mg/ml) was “fibril formation”; in data set [2] (pH 7, B2M working solution 1 mg/ml), “non-aggregated form”. Further, the zone of inhibition was found to be 1.03 ± 0.05 cm in data set [1] (control B2M 125 µg/ml, mean ± SD) and 1.33 ± 0.05 cm in data set [1] (control B2M 1 mg/ml, mean ± SD). The inhibition zone diameter result in data set [1] (pH modified agarose, pH 4.5) is listed as “exceeding 1 cm”. In addition, the antimicrobial activity entry in data set [1] (pH modified agarose, pH values of 6 and above) is “no antimicrobial activity”. The “lowest concentration at which dose-dependent antibacterial activity was still detected” value in data set [1] (radial diffusion assay, three independent experiments (Figure 3b)) worked out at 7.5 mg/L. The “bacteria still viable (% survival compared to mock-treated)” value in data set [3] (pH 4.5, 2 hours) is on record as “about 10%”; in data set [3] (pH 5.5, 2 hours) it was “about 10%”. The substance further yielded a survival rate in data set [3] (pH 7, 2 hours) of 90%. The growth inhibition entry (in data set [4]; with Bacillus subtilis) was “clear dose-dependent growth inhibition” in each case. Further, the “Sytox green uptake (fluorescence) versus controls” value in data set [5] is reported as “increased fluorescence”.
Regarding “B2M supernatant: supernatant of B2M solution after fibril formation and centrifugation; contains monomers, oligomers, possibly small fragmented fibrils”, the zone of inhibition was found to be 1.03 ± 0.05 cm in data set [1] (B2M 1 mg/ml incubated 30 min 37°C in assay buffer pH 4.5, supernatant after centrifugation, undiluted, mean ± SD); 0.27 ± 0.05 cm in data set [1] (B2M 1 mg/ml incubated 30 min 37°C in assay buffer pH 7, supernatant after centrifugation, undiluted, mean ± SD); 0.90 ± 0.00 cm in data set [1] (pH 4.5 supernatant, diluted 1:2, mean ± SD); 0.83 ± 0.05 cm in data set [1] (pH 4.5 supernatant, diluted 1:4, mean ± SD); 0.63 ± 0.05 cm in data set [1] (pH 4.5 supernatant, diluted 1:8, mean ± SD); 0.43 ± 0.05 cm in data set [1] (pH 4.5 supernatant, diluted 1:16, mean ± SD). For the same substance, the zone of inhibition in data set [1] (pH 7 supernatant, diluted 1:2) is 0 cm; in data set [1] (pH 7 supernatant, diluted 1:4) it was 0 cm; in data set [1] (pH 7 supernatant, diluted 1:8), 0 cm; in data set [1] (pH 7 supernatant, diluted 1:16) it was 0 cm.
